Assay results taken from US20160289650A1, “FLUORESCENT PROTEIN BIOSENSORS TO PROBE THE CONFORMATIONAL ACTIVATION OF CDK/CYCLIN KINASES” (CENTRE NATIONAL DE LA RECHERCHE SCIENTIFIQUE (CNRS), priority 2012, published 2016).

Biological target: Cyclin A (UniProt P20248)
Assay: steady-state fluorescence titration of the labelled CDK2 sensor with Cyclin A

Substance	Kd [nM]	Maximum Fluorescence Enhancement [fold]
C177 CDK2 (single-cysteine CDK2 mutant keeping Cys177), FITC-labelled (from UniProt P24941 1-298)	50	7
C191 CDK2 (single-cysteine CDK2 mutant keeping Cys191), FITC-labelled (from UniProt P24941 1-298)	45	5
CDKCONF labelled with FITC on C177 and C191 (from UniProt P24941 1-298)		12
